Reference: patent US20060035844A1, “Preventive or remedy for diseases caused by hyperglycemia” (priority 2002, published 2006)

System: male Wistar rats
Test: Effects of an SGLT1 inhibitor on absorption of fructose (fructose tolerance test, residual fructose in the gastrointestinal tract)
Type: in vivo, rat
Settings: 0.2 g/kg fructose load, after 30 minutes, control 11.8 ± 2.1

O=C(CCc1ccc(O)cc1)c1c(O)cc(O)cc1O[C@@H]1O[C@H](CO)[C@@H](O)[C@H](O)[C@H]1O [Phlorizin, reference compound]
Residual fructose (% of dose) in the gastrointestinal tract (40 mg/kg oral, ** P<0.01): 22.5 ± 1.9 ** %
Residual fructose (% of dose) in the gastrointestinal tract (100 mg/kg oral, *** P<0.001): 32.2 ± 1.5 *** %
